Consider 1 compound from ChEMBL document CHEMBL2169811, “Oncoepigenomics: making histone lysine methylation count” (Eur J Med Chem, 2012).

Amino acid sequences for entries named in this document (tags omitted).
UniProt Q99873, whole entry: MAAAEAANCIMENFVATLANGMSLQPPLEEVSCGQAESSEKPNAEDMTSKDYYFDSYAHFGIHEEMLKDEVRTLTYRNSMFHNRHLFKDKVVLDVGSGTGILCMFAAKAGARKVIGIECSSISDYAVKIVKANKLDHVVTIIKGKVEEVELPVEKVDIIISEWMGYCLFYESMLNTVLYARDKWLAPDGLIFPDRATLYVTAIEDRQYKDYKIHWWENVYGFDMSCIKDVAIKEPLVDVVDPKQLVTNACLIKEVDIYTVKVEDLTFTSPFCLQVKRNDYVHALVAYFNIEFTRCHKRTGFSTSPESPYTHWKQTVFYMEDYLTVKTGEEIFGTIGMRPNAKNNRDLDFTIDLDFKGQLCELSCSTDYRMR

This test addresses Protein arginine N-methyltransferase 1 (Homo sapiens, UniProt Q99873).

For the compound `CNc1ncnc2c1ncn2[C@@H]1O[C@H](CN(CCI)CCC[C@H](N)C(=O)O)[C@@H](O)[C@H]1O`, the IC50 is greater than 100 µM.

One may read the IC50 as the concentration needed to halve the response being measured.
